Sequences of proteins named here, by UniProt entry; tags and fusion partners are left off.
ATP-dependent Clp protease proteolytic subunit (Bacillus subtilis (strain 168)), P80244, UniProt P80244, whole entry, looked up: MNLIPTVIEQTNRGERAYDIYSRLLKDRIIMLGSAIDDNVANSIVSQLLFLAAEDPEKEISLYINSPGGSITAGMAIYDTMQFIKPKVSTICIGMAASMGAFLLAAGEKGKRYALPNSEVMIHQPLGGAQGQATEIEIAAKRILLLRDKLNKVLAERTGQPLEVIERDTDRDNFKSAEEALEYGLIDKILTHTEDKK

# Screening results (PubChem BioAssay)
# ClpP mod: qHTS Assay for Activators of ClpP; Potency, µM (highest dose often 57.5 µM); ATP-dependent Clp protease proteolytic subunit (Bacillus subtilis (strain 168)), P80244; 340,000 tested, 1.9% active; purified B. subtilis ClpP, FRET peptide cleavage, 20 min; active = well fitted falling curve with a large enough effect; inconclusive = small, poorly fitted or top-dose-only effect; inactive = no such curve, though single readings can be large or run the other way; note: the source files actives as falling curves though it sought activators and does not explain the sign; nearly all actives have a fitted effect of over 65% in size
#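 Purified B. subtilis ClpP, 10 microg/mL final in Tris/HCl pH8 with KCl, BSA, glycerol and Tween-20, cleaved an Abz/nitrotyrosine-quenched decapeptide. Fluorescence (ex 320, em 430) was read at 0 and 20 min at room temperature. Delta was normalized to 5.8 microM ADEP and DMSO/no-enzyme controls.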
# miR-21 FLuc: raises the signal of a miR-21 reporter | HeLa miR-21 FLuc reporter, luciferase, 48 h | Potency, µM (doses to about 38.3 µM) | 340,000 tested, under 10 active | AID 2288; active = well fitted rising curve with a large enough effect; inconclusive = small, poorly fitted or top-dose-only effect; inactive = no such curve, though single readings can be large or run the other way;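 note: miR-21 action dims this reporter so a rising signal means less miR-21 action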
#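 HeLa cells stably expressing CMV-driven firefly luciferase with a downstream miR-21 binding sequence, endogenously expressing miR-21, were treated with titrations (up to about 40uM final) for 48 hours at 37 degree Celsius. Luciferase luminescence was read after lysis.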
# TrxR1 inh: rat TrxR1 inhibition | AID 588453 | recombinant rTrxR1, NADPH fluorescence consumption, selenite substrate | 390,000 tested, 1% active | Potency, µM (titrated, usually from 114 µM), hits mostly inhibitors | O89049; note: nearly all actives have a fitted effect of over 65% in size
#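 Rat TrxR1 (90 nM in the dispensed reagent) was pre-reduced with 400 uM NADPH for 5 min at room temperature, then incubated with compound for 15 min. After 400 uM selenite was added, NADPH fluorescence (Ex 340/Em 450 nm) was followed for 8 min.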
# Apoferritin bind: candidate novel general anesthetic via apoferritin binding; P02791; apoferritin/1-aminoanthracene competitive binding, fluorescence; Potency, µM (highest dose often 77.5 µM), usual class: inhibitors; 350,000 tested, 0.074% active; AID 485281; note: nearly all actives have a fitted effect of over 20% in size
#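 Apoferritin-based anesthetic binding model; compound displacement of fluorescent 1-AMA measured as endpoint fluorescence after 10 minutes at room temperature, scaled to free-ligand and complex controls.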
# TrxR1 substrate: rat thioredoxin reductase 1 substrate activity. 390,000 tested, 0.01% active. O89049. purified TrxR1 substrate turnover, NADPH consumption readout. Potency, µM (highest dose often 114 µM); note: nearly all actives have a fitted effect of over 50% in size
#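 Rat TrxR1, dispensed at 90 nM, was prereduced with 400 uM NADPH (final) for 5 min at ~22 deg C, then incubated with compound 15 min before 400 uM selenite. A first-read NADPH fluorescence drop versus no-compound background flagged substrates.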
# Hits are given with their value; . = inactive; ? = inconclusive; / = no result; [ ] = remark or other dose. Hits are enriched below; roughly 2.5% of the tested compounds scored in any of these assays. Unless noted, calls come from the whole dose curve; as a rule, active = well fitted curve in the direction sought with a large enough effect; inconclusive = small, poorly fitted or top-dose-only effect, or another doubt; inactive = no such curve, though single readings can be large; an effect the other way counts as inactive or inconclusive.
SMILES,ClpP mod,miR-21 FLuc,TrxR1 inh,Apoferritin bind,TrxR1 substrate
CN1CCN(CCCNC(=O)c2ccc(CSCc3cccc(Cl)c3)o2)CC1,14.1µM,.,.,.,.
Cc1cccc(CS(=O)(=O)Cc2ccc(C(=O)NCCCN3CCCC3)o2)c1,.,.,.,?,.
O=C(NCCCN1CCCC1)c1ccc(CSCc2cccc(Cl)c2)o1,.,.,.,.,.
Cc1ccccc1NC(=O)c1ccc(NC(=O)C2CCCO2)cc1 (stereo not drawn),15.8µM,.,.,.,.[0.0914 µM]
O=C(Nc1ccc2oc(-c3ccccc3)nc2c1)C1CCCO1 (stereo not drawn),.,.,.,.,.
O=C(Nc1ccc(-c2nc3cc(Cl)ccc3o2)cc1)c1cc(Br)ccc1Cl,28.2µM,.,.,.,.
O=C(Nc1ccc(-c2nc3cc(Cl)ccc3o2)cc1)C1CCCO1 (stereo not drawn),28.2µM,.,.,.,.
O=C(Nc1ccc(-c2nc3ccccc3o2)cc1)C1CCCO1 (stereo not drawn),15.8µM,.,.,.,.
CCCNC(=O)Cn1nc(-c2ccc(C)c(C)c2)c2cnc3ccc(OC)cc3c21,.,.,.,.,.
Cc1ccc2nc(-c3ccc(NC(=O)Cc4cccs4)cc3)[nH]c2c1,?,.,.,.,.
Cc1ccc2nc(-c3ccc(NC(=O)C4CCCO4)cc3)[nH]c2c1 (stereo not drawn),31.6µM,.,.,.,.
CCOC(=O)c1c(C)oc2c1c(C(c1cccnc1)N1CCOCC1)c(O)c1ccccc12 (stereo not drawn),.,.,11.2µM,.,.
CCOC(=O)c1c(C)oc2c1c(C(c1cccnc1)N1CCN(C)CC1)c(O)c1ccccc12 (stereo not drawn),/,.,/,.,/
CCOC(=O)c1c(C)oc2c1c1c(c3ccccc32)OCN(Cc2cccnc2)C1,.,.,1.41µM,.,.
CCOC(=O)c1c(C)oc2c1c1c(c3ccccc32)OCN(CCCC(=O)O)C1,.,.,3.55µM,.,.
CCn1cc(C(=O)NCc2ccc(C)cc2)c(=O)c2cc(S(=O)(=O)N3CCCCCC3)ccc21,.,.,.,?,.
Cc1nc2ccc([N+](=O)[O-])cc2nc1C,.,.,.,.,.
Cc1ccc2nc3cc([N+](=O)[O-])cc([N+](=O)[O-])c3cc2c1,.,.,50.1µM,.,.
CC(C)(C)CC(C)(C)N=C1Nc2cc(Cl)c(Cl)cc2N[C@]12C[C@H]1CCCC(=O)N3CC[C@@H](C2)[C@@H]13,.,/,.,/,.
NC(=O)c1ccccc1N=Cc1ccccn1,25.1µM,.,.,.,.
NC(=O)c1ccccc1N=Cc1cccnc1,/,/,.,/,.
O=C(Nc1ccccc1)c1ccccc1N=Cc1cccc(O)c1,/,.,.,.,.
Cc1ccccc1C=Nc1ccccc1C(N)=O,28.2µM,.,.,.,.
Cc1ccc(C=Nc2ccccc2C(N)=O)cc1,31.6µM,.,.,.,.
Cc1ccc(C=Nc2ccccc2C(=O)Nc2ccccc2)cc1,28.2µM,.,.,.,.
SMILES,ClpP mod,miR-21 FLuc,TrxR1 inh,Apoferritin bind,TrxR1 substrate
Cc1ccccc1/C=N\NC(=O)c1csnn1,.,.,.,.,.
CCCCNC(=O)C(CC)Sc1nc2ccccc2c(=O)n1Cc1ccco1 (stereo not drawn),.,.,.,.,.
CCOc1cc(-c2ccc3c(c2)OCO3)cc(=[O+]CC)c2c(C)oc(C)c12,.,/,?,/,.
COc1cccc(/C=N/NC(=O)CSCC(=O)Nc2ccccc2)c1O,.,.,.,?,.
COc1cccc(C=Nc2ccccc2C(=O)Nc2ccccc2)c1O,22.4µM,.,.,.,.
COc1cc(-c2noc(CN3CCN(c4cccc(Cl)c4)CC3)n2)cc(OC)c1OC,.,.,.,.,.
CCOc1ccc(N(CC)S(=O)(=O)N2CCCC(C(=O)NCCc3ccccc3OC)C2)cc1 (stereo not drawn),.,.,.,.,.
COCCN(CCOC)C(=O)c1c[nH]c2ccc(S(=O)(=O)N(C)c3ccc(F)cc3)cc2c1=O,31.6µM,.,.,.,.
Cc1nc2sc(C)c(C)c2c(=O)[nH]1,.,.,.,.,.
C=C1CSc2nc(=O)c3c(C)c(C)sc3n21,15.8µM,.,.,.,.
O=c1cc(-c2ccc(O)cc2)oc2c(O)c(O)c(O)c(O)c12,.,.,15.8µM,.,.
O=C(Nc1nc2nccc(-c3ccccc3)n2n1)c1ccccc1,/,.,.,.,.
O=C(Nc1nc2nccc(-c3ccccc3)n2n1)c1ccc(F)cc1,28.2µM,.,.,.,.
COc1ccc2nc(/C=N/NC(=O)[C@H](CCSC)NC(=O)OC(C)(C)C)ccc2c1,8.91µM,.,.,.,.
CCC(C)[C@H](NC(=O)OC(C)(C)C)C(=O)N/N=C/c1ccc2cc(OC)ccc2n1 (stereo partly drawn),?,.,.,.,.
COc1ccc(C(=O)N/C(=C/c2cccs2)c2nc3ccccc3[nH]2)cc1OC,.,.,.,/,.
COc1cc(/C=C(/C(=O)c2cccs2)c2nc3ccccc3[nH]2)cc(OC)c1O,.,?,56.2µM,.,.
O=C(Nc1ccccc1C(=O)O)c1ncn[nH]1,28.2µM,.,.,.,.
CCn1c(=O)c2cc(C(=O)N(C)c3cc(C)ccc3C)sc2c2ccccc21,.,.,.,.,.
CCn1cc(C(=O)NCc2ccc(C)o2)c2cc(OC)c(OC)cc2c1=O,.,.,22.4µM,.,.
CCn1cc(C(=O)NCC(=O)OC)c2cc(OC)c(OC)cc2c1=O,.,.,.,.,.
O=C(CC(Nc1ccc(F)cc1)C(=O)OCC(=O)c1cccs1)c1ccccc1 (stereo not drawn),.,.,25.1µM,.,.
Cc1ccc(NC(CC(=O)c2ccccc2)c2ccc(F)cc2)cc1 (stereo not drawn),.,.,.,.,.
O=C(CC(Nc1ccc(F)cc1)C(=O)O)c1ccccc1 (stereo not drawn),.,.,14.1µM,.,.
COc1ccc(C(=O)CN2CCN(S(=O)(=O)c3ccc(C(C)C)cc3)CC2)cc1,.,.,.,.,.
COc1ccc(NS(=O)(=O)c2cccc(C(=O)NCC(c3ccc(OC)cc3)N3CCCCC3)c2)cc1 (stereo not drawn),.,/,.,/,.
COc1ccc(NS(=O)(=O)c2cccc(C(=O)NCC(c3ccc(OC)cc3)N3CCCC3)c2)cc1 (stereo not drawn),28.2µM,/,.,/,.
CCC1(C)Cc2ccccc2-c2nc(NCCCO)n(-c3ccccc3)c(=O)c21 (stereo not drawn),3.55µM,.,.,.,.
CCC1(C)Cc2ccccc2-c2nc3n(c(=O)c21)CC(C(=O)O)S3 (stereo not drawn),25.1µM,.,.,.,.
